From PubChem BioAssay (NCI)
The list shows a part of the results, in another mix than the full data.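 Plates (96-well) were seeded with cells, treated with compound at one concentration, and incubated for 48 hours before percent growth was determined.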 Active and inactive are the calls of the source. The calls were made as follows: active = growth percent below 10; inactive = the rest.

Assays:
Assay in all cases: NCI-60 one-dose screen, 48 h (100 = growth as untreated, 0 = no growth, -100 = all killed)
DU-145 prostate = conditions: 10 µM unless noted
K-562 leukemia = conditions: 10 µM unless noted
MALME-3M melanoma = conditions: 10 µM unless noted
MDA-MB-231 breast = conditions: 10 µM unless noted
RXF 393 renal = conditions: 10 µM unless noted
SF-268 CNS = conditions: 10 µM unless noted
SF-295 CNS = conditions: 10 µM unless noted
SF-539 CNS = conditions: 10 µM unless noted
UACC-257 melanoma = conditions: 10 µM unless noted
M14 melanoma = conditions: 10 µM unless noted
HCT-15 colon = conditions: 10 µM unless noted
HT29 colon = conditions: 10 µM unless noted
SNB-75 CNS = conditions: 10 µM unless noted
SNB-19 CNS = conditions: 10 µM unless noted
U251 CNS = conditions: 10 µM unless noted
PC-3 prostate = conditions: 10 µM unless noted
SK-MEL-5 melanoma = conditions: 10 µM unless noted
UACC-62 melanoma = conditions: 10 µM unless noted
LOX IMVI melanoma = conditions: 10 µM
SK-MEL-28 melanoma = conditions: 10 µM unless noted

Measured: growth

COP(=O)(OC)N(CCCl)CCCl
inactive: DU-145 prostate 113% | K-562 leukemia 46.2% | MALME-3M melanoma 98.5% | MDA-MB-231 breast 107% | RXF 393 renal 98.5% | SF-268 CNS 112% | SF-295 CNS 98% | SF-539 CNS 100% | UACC-257 melanoma 99.8% | M14 melanoma 118% | HCT-15 colon 103% | HT29 colon 113% | SNB-75 CNS 70.7% | SNB-19 CNS 99.8% | U251 CNS 95% | PC-3 prostate 94.4% | SK-MEL-5 melanoma 99.5% | UACC-62 melanoma 105% | LOX IMVI melanoma 91.5% | SK-MEL-28 melanoma 100%

Nc1ccc([As](=O)(O)c2ccc([N+](=O)[O-])cc2)cc1
inactive: DU-145 prostate 110% | K-562 leukemia 106% | MALME-3M melanoma 105% | MDA-MB-231 breast 97.1% | RXF 393 renal 82.4% | SF-268 CNS 113% | SF-295 CNS 106% | SF-539 CNS 101% | UACC-257 melanoma 52.6% | M14 melanoma 101% | HCT-15 colon 106% | HT29 colon 111% | SNB-75 CNS 92.8% | SNB-19 CNS 95.3% | U251 CNS 111% | PC-3 prostate 89.7% | SK-MEL-5 melanoma 97.3% | UACC-62 melanoma 98.7% | LOX IMVI melanoma 90.3% | SK-MEL-28 melanoma 117%

Cc1ccccc1CN(CCCl)Cc1ccccc1C
inactive: DU-145 prostate 103% | K-562 leukemia 95.4% | MALME-3M melanoma 99.2% | MDA-MB-231 breast 107% | RXF 393 renal 107% | SF-268 CNS 98.2% | SF-295 CNS 110% | SF-539 CNS 95% | UACC-257 melanoma 103% | M14 melanoma 97.3% | HCT-15 colon 104% | HT29 colon 99.3% | SNB-75 CNS 97.5% | U251 CNS 99.1% | PC-3 prostate 89% | SK-MEL-5 melanoma 96.4% | UACC-62 melanoma 91.4% | LOX IMVI melanoma 96.9% | SK-MEL-28 melanoma 112%

ClP1(Cl)=NP(Cl)(Cl)=NP(Cl)(Cl)=N1
inactive: DU-145 prostate 115% | K-562 leukemia 108% | MALME-3M melanoma 117% | MDA-MB-231 breast 106% | RXF 393 renal 118% | SF-268 CNS 102% | SF-295 CNS 109% | UACC-257 melanoma 103% | M14 melanoma 99% | HCT-15 colon 91.6% | HT29 colon 98.6% | SNB-75 CNS 114% | SNB-19 CNS 104% | U251 CNS 105% | PC-3 prostate 95% | SK-MEL-5 melanoma 110% | UACC-62 melanoma 102% | LOX IMVI melanoma 92.9% | SK-MEL-28 melanoma 114%

CN(C)P(=O)(N(C)C)n1c(Nc2ccccc2)nnc1-c1ccccc1
inactive: DU-145 prostate 106% | K-562 leukemia 128% | MALME-3M melanoma 103% | MDA-MB-231 breast 83.8% | RXF 393 renal 108% | SF-268 CNS 101% | SF-539 CNS 95.4% | UACC-257 melanoma 99% | M14 melanoma 103% | HCT-15 colon 99.6% | HT29 colon 84.3% | SNB-75 CNS 82.3% | SNB-19 CNS 95.7% | U251 CNS 98.9% | PC-3 prostate 86.7% | SK-MEL-5 melanoma 98.1% | UACC-62 melanoma 78.6% | LOX IMVI melanoma 94.2% | SK-MEL-28 melanoma 105%

ClCCNCC1COc2ccccc2O1 (configuration not stated)
inactive: DU-145 prostate 102% | K-562 leukemia 103% | MALME-3M melanoma 103% | MDA-MB-231 breast 101% | RXF 393 renal 103% | SF-268 CNS 91.4% | SF-295 CNS 98.8% | SF-539 CNS 101% | M14 melanoma 104% | HCT-15 colon 105% | HT29 colon 95.8% | SNB-75 CNS 97.7% | SNB-19 CNS 104% | U251 CNS 94% | PC-3 prostate 98.1% | SK-MEL-5 melanoma 99.4% | UACC-62 melanoma 97.6% | LOX IMVI melanoma 96.7% | SK-MEL-28 melanoma 112%

O=C1OCCN1P(=O)(Cl)N1CCOC1=O
inactive: DU-145 prostate 115% | K-562 leukemia 99.3% | MALME-3M melanoma 121% | MDA-MB-231 breast 102% | RXF 393 renal 94.6% | SF-268 CNS 107% | SF-295 CNS 107% | SF-539 CNS 107% | UACC-257 melanoma 103% | M14 melanoma 99.9% | HCT-15 colon 99.4% | SNB-75 CNS 99.3% | SNB-19 CNS 98.8% | U251 CNS 94% | PC-3 prostate 101% | SK-MEL-5 melanoma 109% | UACC-62 melanoma 101% | LOX IMVI melanoma 85.3% | SK-MEL-28 melanoma 101%

NP(=O)(N(CCCl)CCCl)N1CC1 (configuration not stated)
inactive: DU-145 prostate 79.4% | K-562 leukemia 93% | MALME-3M melanoma 100% | MDA-MB-231 breast 114% | RXF 393 renal 108% | SF-268 CNS 93.8% | SF-539 CNS 100% | UACC-257 melanoma 104% | M14 melanoma 97.3% | HCT-15 colon 106% | HT29 colon 94.3% | SNB-75 CNS 81.9% | SNB-19 CNS 106% | U251 CNS 103% | PC-3 prostate 97.9% | SK-MEL-5 melanoma 106% | UACC-62 melanoma 110% | LOX IMVI melanoma 96.8% | SK-MEL-28 melanoma 107%

Cc1cccc(Nc2c([N+](=O)[O-])cc([N+](=O)[O-])cc2[N+](=O)[O-])c1
inactive: DU-145 prostate 104% | K-562 leukemia 78.6% | MALME-3M melanoma 82.6% | MDA-MB-231 breast 92.9% | RXF 393 renal 112% | SF-268 CNS 96.3% | SF-539 CNS 101% | UACC-257 melanoma 93.5% | M14 melanoma 101% | HCT-15 colon 80.1% | HT29 colon 76.1% | SNB-75 CNS 86.6% | SNB-19 CNS 103% | U251 CNS 87.6% | PC-3 prostate 77.2% | SK-MEL-5 melanoma 93.8% | UACC-62 melanoma 71.5% | LOX IMVI melanoma 70.6% | SK-MEL-28 melanoma 107%

COc1ccc([As](=O)(O)O)cc1
inactive: DU-145 prostate 118% | K-562 leukemia 106% | MALME-3M melanoma 112% | MDA-MB-231 breast 113% | RXF 393 renal 101% | SF-268 CNS 109% | SF-539 CNS 95.7% | UACC-257 melanoma 98.8% | M14 melanoma 102% | HCT-15 colon 105% | HT29 colon 108% | SNB-75 CNS 82.2% | SNB-19 CNS 101% | U251 CNS 99.1% | PC-3 prostate 97.1% | SK-MEL-5 melanoma 102% | UACC-62 melanoma 105% | LOX IMVI melanoma 45.9% | SK-MEL-28 melanoma 109%

Nc1cccc2ccc([As](=O)(O)O)cc12
inactive: DU-145 prostate 120% | K-562 leukemia 109% | MALME-3M melanoma 105% | MDA-MB-231 breast 113% | RXF 393 renal 109% | SF-268 CNS 107% | SF-295 CNS 114% | SF-539 CNS 95.4% | UACC-257 melanoma 107% | HCT-15 colon 102% | HT29 colon 98.5% | SNB-75 CNS 67.2% | SNB-19 CNS 98.9% | U251 CNS 94.8% | SK-MEL-5 melanoma 93.4% | UACC-62 melanoma 104% | LOX IMVI melanoma 102% | SK-MEL-28 melanoma 111%

O=C(N(CCCl)CCCl)C(Cl)(Cl)Cl
inactive: DU-145 prostate 109% | K-562 leukemia 108% | MALME-3M melanoma 114% | MDA-MB-231 breast 114% | RXF 393 renal 99.9% | SF-268 CNS 103% | SF-539 CNS 92.7% | UACC-257 melanoma 107% | M14 melanoma 112% | HCT-15 colon 92.7% | HT29 colon 91.6% | SNB-75 CNS 80.6% | SNB-19 CNS 102% | U251 CNS 93% | PC-3 prostate 81.4% | SK-MEL-5 melanoma 98.2% | UACC-62 melanoma 104% | LOX IMVI melanoma 107% | SK-MEL-28 melanoma 103%

CCN(CCCl)CC1COc2ccccc2O1 (configuration not stated)
inactive: DU-145 prostate 111% | K-562 leukemia 105% | MALME-3M melanoma 103% | MDA-MB-231 breast 104% | RXF 393 renal 108% | SF-268 CNS 108% | SF-295 CNS 95.9% | SF-539 CNS 98.6% | M14 melanoma 101% | HCT-15 colon 100% | HT29 colon 108% | SNB-75 CNS 99.5% | SNB-19 CNS 104% | U251 CNS 95% | PC-3 prostate 97% | SK-MEL-5 melanoma 103% | UACC-62 melanoma 101% | LOX IMVI melanoma 94.7% | SK-MEL-28 melanoma 113%

O=[N+]([O-])C1C(O)C(O)C([N+](=O)[O-])C(O)C1O (configuration not stated)
inactive: DU-145 prostate 108% | K-562 leukemia 110% | MALME-3M melanoma 97.5% | MDA-MB-231 breast 92.1% | RXF 393 renal 102% | SF-268 CNS 112% | SF-295 CNS 95.3% | SF-539 CNS 106% | M14 melanoma 98% | HCT-15 colon 106% | HT29 colon 101% | SNB-75 CNS 123% | SNB-19 CNS 96.7% | PC-3 prostate 106% | SK-MEL-5 melanoma 101% | UACC-62 melanoma 95.8% | LOX IMVI melanoma 105% | SK-MEL-28 melanoma 114%

O=[As]1(O)c2ccccc2-c2ccccc21
inactive: DU-145 prostate 108% | K-562 leukemia 85.5% | MALME-3M melanoma 112% | MDA-MB-231 breast 104% | RXF 393 renal 100% | SF-268 CNS 108% | SF-295 CNS 106% | SF-539 CNS 89.7% | UACC-257 melanoma 99.6% | HCT-15 colon 117% | HT29 colon 112% | SNB-75 CNS 84.2% | SNB-19 CNS 95.7% | U251 CNS 102% | SK-MEL-5 melanoma 99.9% | UACC-62 melanoma 93.1% | LOX IMVI melanoma 104% | SK-MEL-28 melanoma 113%

N/C(=N\N=C\c1ccc([N+](=O)[O-])o1)N[N+](=O)[O-]
inactive: DU-145 prostate 110% | K-562 leukemia 101% | MALME-3M melanoma 81% | MDA-MB-231 breast 92.8% | RXF 393 renal 110% | SF-268 CNS 96.4% | SF-295 CNS 101% | UACC-257 melanoma 94.7% | M14 melanoma 98.6% | HCT-15 colon 87.3% | HT29 colon 108% | SNB-75 CNS 91.9% | SNB-19 CNS 97% | U251 CNS 90.1% | PC-3 prostate 86.4% | SK-MEL-5 melanoma 92.5% | UACC-62 melanoma 91.8% | LOX IMVI melanoma 81.5% | SK-MEL-28 melanoma 105%

CN(C)P(=O)(Nc1ccccn1)N(C)C
inactive: DU-145 prostate 110% | K-562 leukemia 112% | MALME-3M melanoma 104% | MDA-MB-231 breast 111% | RXF 393 renal 106% | SF-268 CNS 112% | SF-539 CNS 104% | UACC-257 melanoma 86% | M14 melanoma 115% | HCT-15 colon 109% | HT29 colon 100% | SNB-75 CNS 88.4% | SNB-19 CNS 104% | U251 CNS 98% | PC-3 prostate 92.9% | SK-MEL-5 melanoma 98.4% | UACC-62 melanoma 110% | LOX IMVI melanoma 96.8% | SK-MEL-28 melanoma 117%
